SMILES strings stand for the structures. This is a selection; strong and weak results do not stand in their true shares. Some salts or complexes appear as unconnected parts, following the source record. Calls of active or inactive are those of the source. No stated cut-off is given here; in the data, active means potentiation above about 50%; inconclusive means mostly about 30% to 49%; inactive means weaker than that.

The chains behind the UniProt entries cited, without tags or fusion partners.
UniProt P14416, whole entry: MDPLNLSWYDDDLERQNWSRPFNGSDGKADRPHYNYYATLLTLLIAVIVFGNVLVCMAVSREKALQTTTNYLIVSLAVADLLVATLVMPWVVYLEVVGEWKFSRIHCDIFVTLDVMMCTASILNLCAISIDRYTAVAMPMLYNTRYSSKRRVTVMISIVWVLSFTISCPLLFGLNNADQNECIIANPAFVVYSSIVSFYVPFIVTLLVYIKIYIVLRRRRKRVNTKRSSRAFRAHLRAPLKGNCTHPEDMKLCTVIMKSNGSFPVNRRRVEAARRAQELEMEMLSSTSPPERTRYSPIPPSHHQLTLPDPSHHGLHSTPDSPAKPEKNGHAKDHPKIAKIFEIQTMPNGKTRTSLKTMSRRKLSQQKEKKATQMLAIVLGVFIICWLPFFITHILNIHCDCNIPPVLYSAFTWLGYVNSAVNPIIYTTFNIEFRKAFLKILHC

Here are results for 59 compounds from PubChem BioAssay AID624464 (National Center for Advancing Translational Sciences (NCATS), 2012).

The target of this test is D(2) dopamine receptor (Homo sapiens) (UniProt P14416). The test is described as follows: Beta-Arrestin HTS for Positive Allosteric Modulators of the Human D2 Dopamine Receptor: Potentiators. The following applies: DiscoveRx D2 beta-arrestin cells, luminescence, 90 min; hits give high values; 100% = 57 uM dopamine signal. From the text: There is great interest in identifying small molecule ligands for G-protein coupled receptors (GPCRs) as nearly 50% of all FDA-approved drugs target these important receptor proteins. […] Amongst the dopamine receptors (DARs), the D2 is arguably one of the most validated drug targets in neurology and psychiatry. For instance, all receptor-based antiparkinsonian drugs primarily work via stimulating the D2 DAR, whereas all FDA-approved antipsychotic agents are antagonists of this receptor. The D2 DAR is also therapeutically targeted in other disorders such as restless legs syndrome, tardive dyskinesia, Tourette's syndrome, and hyperprolactinemia.
To this end, a miniaturized qHTS screen was developed to be screened against the Molecular Libraries Small Molecule Repository (MLSMR). This assay seeks to identify potentiators against the D2 DAR.
NIH Molecular Libraries Probe Production Network [MLPCN]
NIH Chemical Genomics Center [NCGC]
PI Name: David Sibley, National Institutes of Neurological Disorders and Stroke
DiscoveRx D2 cells were thawed from frozen stock and seeded at 2,100 cells/ 3 uL/well media (DiscoveRx Plating Reagent 2) with MultiDrop Combi dispenser (Thermo Scientific, Logan, UT) onto white tissue culture treated 1536-well Aurora plates (Brooks Automation, Chelmsford, MA) and allowed to attach overnight at 37 deg C, 5% CO2. Next, 23 nL/well of compound solutions in DMSO were added with a pintool transfer (Kalypsis, San Diego, CA). As the positive control, 1 uL/well dopamine (EC100, 57 uM final concentration) diluted in buffer (HBSS + 10 mM HEPES + SMB + 0.1 %Tween-20) was dispensed to 1 column of each plate. EC20 (Dopamine at 50 nM final concentration) was dispensed to the rest of the plate except columns 1 &2 which were used as negative control (EC=0, buffer only), 1 uL/well as well. The cells were stimulated by compounds and dopamine for 90 minutes at 37 deg C, 5% CO2, after which 1.5 uL/well of DiscoveRx detection reagent was added with BioRAPTR FRD dispenser. The detection reagent was prepared by mixing of Galacton Star Substrate, Emerald II solution and PathHunter buffer (supplied by the assay kit) together at 1:5:19 proportion accordingly just prior to dispensing. The plates were incubated at ambient temperature for 1 hour and then the luminescent signal was read on ViewLux plate reader (PerkinElmer, Waltham, MA).
In the case of `Cc1cccc(NC2(C#N)CCN(Cc3ccccc3)CC2)c1`, the potentiation was inactive: -34%. The result for `CSc1ccccc1C(=O)NCC1(N2CCCCC2)CCCCC1` reads inactive: -7.79%; that for `Cc1cc(C)cc(N(C(=O)c2ccccc2)C2CCN(C(=O)OC(C)(C)C)CC2)c1`, inactive: 0.221%. The same measure for `O=C(NCC1(N2CCCCC2)CCCCC1)c1ccc(Cl)nc1`: inactive: -4.28%; for `O=c1[nH]c2ccccc2n1C1CCN(C(c2ccccc2OC(F)(F)F)c2nnnn2C2CCCCC2)CC1` (centres undefined): inactive: -2.04%; for `O=C(NCC1(N2CCOCC2)CCCCC1)c1cc2ccccc2o1`: inactive: -15.4%. With `COc1ccc(Cl)cc1C(=O)NCC1(N2CCOCC2)CCCCC1`, the potentiation is inactive: -27%. The result for `O=C1C(O)=C([N+](=O)[O-])C(=O)C(O)=C1[N+](=O)[O-]` reads inactive: -4.93%; that for `O=C(NCC1(N2CCCCC2)CCCCC1)c1ccc(Cl)s1`, inactive: -33.8%. The result for `N#CC1(Nc2ccccc2)CCN(Cc2ccccc2)CC1` reads inactive: -3.21%.

As to `O=C(OC1CN2CCC1CC2)C1c2ccccc2Oc2ccccc21` (centres undefined), the potentiation is inactive: 1.98%. `O=c1[nH]c2ccccc2n1C1CCN(C(c2cc3ccccc3o2)c2nnnn2C2CCCCC2)CC1` (centres undefined): the potentiation is inactive: 4.24%. The result for `CCCCn1nnnc1C(c1ccc(OC)cc1)N1CCC(n2c(=O)[nH]c3ccccc32)CC1` (centres undefined) reads inactive: -7.27%.

With `CCOC(=O)N1CCC(Nc2ccc(OC)cc2)CC1`, the potentiation was inactive: -1.2%.

In the case of `O=C1CCN(Cc2ccccc2)CC1`, the potentiation is inactive: -39.2%. The result for `CC(C)(C)n1nnnc1C(c1ccccc1)N1CCC(n2c(=O)[nH]c3ccccc32)CC1` (centres undefined) reads inactive: -0.548%.

`CCOc1ccc(C)cc1CN(CCCl)CCCl`: the potentiation was inactive: -27.4%. Regarding `COc1ccc(NC2CCN(CCc3ccccc3)CC2)c(OC)c1`, the potentiation is inactive: -25%. The result for `CCOC(=O)N1CCC(Nc2ccc(F)cc2)CC1` reads inactive: -1.32%.

As for `CCCCn1nnnc1C(c1cc2ccccc2o1)N1CCC(n2c(=O)[nH]c3ccccc32)CC1` (centres undefined), the potentiation was inactive: 1.28%. For the compound `O=P1(N(CCCl)CCCl)SCCCS1`, the potentiation was inactive: 8.19%. The result for `CCCCOc1ccc(C(=O)NCC2(N3CCOCC3)CCCCC2)cc1` reads inactive: -20.8%; that for `O=C(NCC1(N2CCCCC2)CCCCC1)c1ccc(F)cc1`, inactive: -2.65%; that for `O=c1[nH]c2ccccc2n1C1CCN(C(c2ccccc2)c2nnnn2C2CCCCC2)CC1` (centres undefined), inactive: 2.37%. Take `CCOC(=O)N1CCC(Nc2cccc(C)c2)CC1`: the potentiation is inactive: 8.99%. The same measure for `COc1cc(C(=O)NCC2(N(C)C)CCCCC2)ccc1OC(F)F`: inactive: -18.9%; for `O=c1[nH]c2ccccc2n1C1CCN(C(c2cccc3ccccc23)c2nnnn2C2CCCC2)CC1` (centres undefined): inactive: -9.66%; for `O=C(NCC1(N2CCCCC2)CCCCC1)c1ccc(OC(F)F)cc1`: inactive: -6.25%. The same measure for `CC(C)(C)n1nnnc1C(c1ccccc1OC(F)(F)F)N1CCC(n2c(=O)[nH]c3ccccc32)CC1` (centres undefined): inactive: 1.67%; for `O=c1[nH]c2ccccc2n1C1CCN(C(c2ccccc2OC(F)(F)F)c2nnnn2C2CCCC2)CC1` (centres undefined): inactive: -0.38%.

`N#CC1(Nc2ccccc2)CCN(CCc2ccccc2)CC1`: the potentiation was inactive: -7.53%.

With `CCN1CCC(Nc2ccc(Cl)cc2)CC1`, the potentiation is inactive: -1.51%. The same measure for `O=C(NCC1(N2CCCCC2)CCCCC1)c1cccc([N+](=O)[O-])c1`: inactive: -9.75%. With `CSc1ccc(C(=O)NCC2(N3CCOCC3)CCCCC2)cc1`, the potentiation is inactive: 11.9%. The result for `O=[N+]([O-])c1cc([N+](=O)[O-])c(NCC2CCS(=O)(=O)C2)c([N+](=O)[O-])c1` (centres undefined) reads inactive: 1.63%. The result for `O=C(NCC1(N2CCCCC2)CCCCC1)c1cccc(C(F)(F)F)c1` reads inactive: -8.94%; that for `COc1cc(C(=O)NCC2(N3CCCCC3)CCCCC2)ccc1OC(F)F`, inactive: -20.5%.

With `O=C(NCC1(N2CCOCC2)CCCCC1)c1cc(=O)[nH]c2ccccc12`, the potentiation was inactive: 5.42%.

As to `CN1CCN(CCOC(=O)C(O)(c2ccccc2)c2ccccc2)CC1`, the potentiation is inactive: -10%. The same measure for `CC(C)c1ccc(C(=O)NCC2(N3CCOCC3)CCCCC2)cc1`: inactive: -25.3%; for `COc1ccc(NC2CCN(C(=O)OC(C)(C)C)CC2)cc1`: inactive: -6.25%. The result for `CCCCn1nnnc1C(c1cccc2ccccc12)N1CCC(n2c(=O)[nH]c3ccccc32)CC1` (centres undefined) reads inactive: -3.88%; that for `CCCCn1nnnc1C(c1ccccc1OC(F)(F)F)N1CCC(n2c(=O)[nH]c3ccccc32)CC1` (centres undefined), inactive: 10.1%. The same measure for `CC(C)c1ccc(NC2CCN(C(=O)OC(C)(C)C)CC2)cc1`: inactive: 0.934%; for `O=[N+]([O-])c1cc([N+](=O)[O-])c(OC2CCCCC2O)c([N+](=O)[O-])c1` (centres undefined): inactive: -31.4%; for `CN(C)c1cccc(C(=O)NCC2(N3CCCCC3)CCCCC2)c1`: inactive: -12.7%.

On to `COc1ccc(CN(CCCl)CCCl)cc1Cl`, for which the potentiation was inactive: -1.11%. The same measure for `CCC(c1nnnn1C(C)(C)C)N1CCC(n2c(=O)[nH]c3ccccc32)CC1` (centres undefined): inactive: -3.69%; for `O=C(NCC1(N2CCOCC2)CCCCC1)c1cc(F)c(F)cc1Cl`: inactive: 6.41%; for `COc1cc(OC)c(C(=O)NCC2(N(C)C)CCCCC2)cc1OC`: inactive: -27%.

For `CCCCn1nnnc1C(c1ccnc2ccccc12)N1CCC(n2c(=O)[nH]c3ccccc32)CC1` (centres undefined), the potentiation was inactive: -0.952%.

For the compound `O=C(OC1CN2CCC1CC2)c1ccc([N+](=O)[O-])cc1` (centres undefined), the potentiation was inactive: -0.57%. Consider `CN1CCC(Nc2cccc(F)c2)CC1`, for which the potentiation is inactive: -12.1%.

On to `COc1ccc2c(c1O)-c1c(O)c(OC)cc3c1[C@H](C2)[N+](C)(C)CC3.O=[N+]([O-])c1cc([N+](=O)[O-])c([O-])c([N+](=O)[O-])c1[O-]`, for which the potentiation was inactive: -5.58%. As for `O=C(NCC1(N2CCCCC2)CCCCC1)c1cncc(Br)c1`, the potentiation is inactive: 0.839%. The result for `O=[N+]([O-])c1cc([N+](=O)[O-])c(Nc2ccc(Cl)cc2)c([N+](=O)[O-])c1` reads inactive: -18.2%; that for `COc1ccc(C(c2nnnn2C2CCCC2)N2CCC(n3c(=O)[nH]c4ccccc43)CC2)cc1` (centres undefined), inactive: -3.41%.

Turning to `CCCOc1ccc(C(=O)NCC2(N(C)C)CCCCC2)cc1OC`, the potentiation is inactive: -18.8%. The result for `Cc1ccc(C(=O)NCC2(N(C)C)CCCCC2)o1` reads inactive: -3.93%.
